Experiments:
Experiment in all cases: competition ELISA vs Tie-2
Conditions in all cases: designed binder
[1] = biological target: human Ang-1 (human) (UniProt Q15389)
[2] = biological target: human Ang-2 (human) (UniProt O15123)
[3] = biological target: mouse Ang-2 (mouse) (UniProt O35608)

Sequences of proteins named here, by UniProt entry; tags and fusion partners are left off. Residues count along the entry.
UniProt Q15389, 20-498: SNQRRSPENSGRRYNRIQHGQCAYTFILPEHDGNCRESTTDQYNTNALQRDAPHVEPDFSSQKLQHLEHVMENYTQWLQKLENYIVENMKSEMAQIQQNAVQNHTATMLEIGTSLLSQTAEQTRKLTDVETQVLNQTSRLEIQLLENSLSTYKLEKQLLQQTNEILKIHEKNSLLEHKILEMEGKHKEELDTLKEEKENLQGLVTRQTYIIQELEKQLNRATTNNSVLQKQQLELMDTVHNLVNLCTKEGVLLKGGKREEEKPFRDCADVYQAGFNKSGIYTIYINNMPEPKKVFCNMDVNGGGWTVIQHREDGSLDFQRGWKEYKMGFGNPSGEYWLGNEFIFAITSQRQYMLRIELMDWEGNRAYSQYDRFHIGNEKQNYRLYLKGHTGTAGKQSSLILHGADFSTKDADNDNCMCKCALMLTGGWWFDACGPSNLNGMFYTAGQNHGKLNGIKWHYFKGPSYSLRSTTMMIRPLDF
UniProt O15123, 19-496: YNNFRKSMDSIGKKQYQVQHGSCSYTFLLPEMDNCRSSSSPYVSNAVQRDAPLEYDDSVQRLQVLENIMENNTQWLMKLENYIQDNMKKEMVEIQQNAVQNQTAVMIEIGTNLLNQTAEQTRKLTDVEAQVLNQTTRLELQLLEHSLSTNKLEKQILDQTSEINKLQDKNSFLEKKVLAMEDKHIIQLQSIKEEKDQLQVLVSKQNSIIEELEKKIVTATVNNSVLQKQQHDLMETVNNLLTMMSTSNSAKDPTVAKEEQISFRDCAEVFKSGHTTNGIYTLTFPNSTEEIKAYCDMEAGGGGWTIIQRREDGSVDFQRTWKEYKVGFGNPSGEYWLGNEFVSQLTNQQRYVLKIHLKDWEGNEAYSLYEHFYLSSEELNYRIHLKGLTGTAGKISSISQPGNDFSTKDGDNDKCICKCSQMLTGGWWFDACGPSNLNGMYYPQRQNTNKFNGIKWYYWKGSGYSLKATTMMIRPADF
UniProt O35608, 19-496: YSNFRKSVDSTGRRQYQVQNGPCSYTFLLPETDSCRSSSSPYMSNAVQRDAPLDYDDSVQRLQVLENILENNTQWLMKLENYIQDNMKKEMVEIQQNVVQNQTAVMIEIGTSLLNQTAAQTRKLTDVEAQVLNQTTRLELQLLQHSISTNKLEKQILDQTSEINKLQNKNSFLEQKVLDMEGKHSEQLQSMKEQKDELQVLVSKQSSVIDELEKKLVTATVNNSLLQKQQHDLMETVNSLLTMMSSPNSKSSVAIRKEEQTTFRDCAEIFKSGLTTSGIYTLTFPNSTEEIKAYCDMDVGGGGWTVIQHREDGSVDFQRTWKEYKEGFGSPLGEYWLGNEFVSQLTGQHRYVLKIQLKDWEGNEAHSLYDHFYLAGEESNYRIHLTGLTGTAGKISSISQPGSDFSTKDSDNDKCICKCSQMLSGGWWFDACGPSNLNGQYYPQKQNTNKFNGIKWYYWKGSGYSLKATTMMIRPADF

- IC50 [1]: > 1000 nM
- IC50 [2]: > 1000 nM
- IC50 [3]: > 1000 nM
Substance: Negative Control Peptibody 4883

From patent US7205275
